# Test results taken from article PMC8840479, “Discovery of Novel Non-Oxime Reactivators Showing In Vivo Antidotal Efficiency for Sarin Poisoned Mice” (2022).
# Experiments:
# VX inhibited hAChE = VX inhibited hAChE (Homo sapiens, UniProt P22303); assay: In vitro reactivation and reactivation kinetics of VX inhibited hAChE; settings: for Reactivation rate constant kr / Second order reactivation rate constant kr2: VX inhibited hAChE; for Reactivation rate constant kr / %Reactivation / Kd: 25 °C; for Reactivation rate constant kr: phosphate buffer 0.10 M, nonlinear fit ± SD; for Reactivation rate constant kr / Kd: pH 7.4; for Second order reactivation rate constant kr2: kr2 = kr/KD; for Observed first-order rate constant kobs / %Reactivation: VX-hAChE; for %Reactivation: 30 min; for Kd: read-out: Dissociation constant KD, VX inhibited hAChE-reactivator complex
# [1] = target: human acetylcholinesterase (hAChE) (Homo sapiens, UniProt P22303); assay: hAChE inhibition experiment (Ellman method); settings: 15 min incubation at 25 °C, pH 7.4
# mice = assay: In vivo experiment 1: acute toxicity of reactivators administered alone; settings: 60 mg/Kg ip, reactivator alone (no sarin, no atropine), administrated as acetic salts
# sarin inhibited hAChE = sarin inhibited hAChE (Homo sapiens, UniProt P22303); assay: In vitro reactivation and reactivation kinetics of sarin inhibited hAChE; settings: for Observed first-order rate constant kobs: Sarin-hAChE; for Kd: read-out: Dissociation constant KD, sarin inhibited hAChE-reactivator complex; for Kd / Reactivation rate constant kr / %Reactivation: 25 °C; for Kd / Reactivation rate constant kr: pH 7.4; for Reactivation rate constant kr / Second order reactivation rate constant kr2: sarin inhibited hAChE; for Reactivation rate constant kr: phosphate buffer 0.10 M, nonlinear fit ± SD; for Second order reactivation rate constant kr2: kr2 = kr/KD; for %Reactivation: sarin-hAChE, 30 min
# [2] = sarin poisoned hAChE, comparison of reactivation efficiency (kr2)
SMILES,Reactivation rate constant kr (VX inhibited hAChE),Second order reactivation rate constant kr2 (VX inhibited hAChE) [M⁻¹ s⁻¹],Observed first-order rate constant kobs (VX inhibited hAChE; reactivator 10 μM),%Reactivation (VX inhibited hAChE; reactivator 10 μM) [%],Observed first-order rate constant kobs (VX inhibited hAChE; reactivator 25 μM),%Reactivation (VX inhibited hAChE; reactivator 25 μM) [%],Kd (VX inhibited hAChE) [µM],IC50 [1],Survival (48 h) (mice),Observed first-order rate constant kobs (sarin inhibited hAChE; reactivator 20 μM),Observed first-order rate constant kobs (sarin inhibited hAChE; reactivator 50 μM),Kd (sarin inhibited hAChE) [µM],Reactivation rate constant kr (sarin inhibited hAChE),Second order reactivation rate constant kr2 (sarin inhibited hAChE) [M⁻¹ s⁻¹],%Reactivation (sarin inhibited hAChE; reactivator 10 μM) [%],%Reactivation (sarin inhibited hAChE; reactivator 25 μM) [%],%Reactivation (sarin inhibited hAChE; reactivator 50 μM) [%],Observed first-order rate constant kobs (VX inhibited hAChE; reactivator 50 μM),%Reactivation (VX inhibited hAChE; reactivator 50 μM) [%],%Reactivation (VX inhibited hAChE; reactivator 100 μM) [%],other results
CCN(CC)Cc1cc(CNc2n[nH]c3ncccc23)ccc1O,4.9 ± 0.6 10^−3min^−1,22,4.3±0.2 10-3min-1,20.76±0.10,4.0±0.2 10-3min-1,20.29±1.54,3.7,< 40 µM and 30.9 µM,6/6,13.8±1.1 10-4min-1,14.2±0.8 10-4min-1,5.31,1.62 ± 0.11 10^−3min^−1,5.07,7.91±2.58,7.51±0.24,9.12±0.70,–,–,–,Fold more efficient than L6R4 (sarin inhibited hAChE; [2]): 2 fold; Fold more efficient than L10R4 (sarin inhibited hAChE; [2]): 3 fold
Oc1ccc(CNc2n[nH]c3ncccc23)cc1Cn1ccnc1,–,–,10.6±0.6 10-3min-1,44.74±1.10,31.4±2.7 10-3min-1,75.66±2.13,–,> 400 µM and 483 µM,6/6,15.8±1.0 10-4min-1,31.1±1.6 10-4min-1,73.8,8.40 ± 0.80 10^−3min^−1,1.88,6.33±0.21,7.94±1.94,17.10±0.09,89.7±10.4 10-3min-1,92.85±4.21,96.42±0.90,Observed first-order rate constant kobs (sarin inhibited hAChE; reactivator 100 μM): 47.2±2.0 10-4min-1; %Reactivation (sarin inhibited hAChE; reactivator 100 μM): 22.52±0.24%
CCN(CC)Cc1cc(CNc2ccc(C(N)=O)cc2)ccc1O,70.8 ± 17.4 10^−3min^−1,5.47,2.4±0.2 10-3min-1,13.21±1.07,5.8±0.6 10-3min-1,29.74±1.82,216,> 400 µM and 439 µM,–,10.7±0.9 10-4min-1,22.8±1.4 10-4min-1,163,10.8 ± 0.6 10^−3min^−1,1.1,5.83±0.86,5.86±3.25,13.90±0.18,11.8±1.1 10-3min-1,48.26±1.36,68.40±0.80,Observed first-order rate constant kobs (sarin inhibited hAChE; reactivator 100 μM): 41.2±2.3 10-4min-1; %Reactivation (sarin inhibited hAChE; reactivator 100 μM): 22.72±0.88%
NC(=O)c1ccc(NCc2ccc(O)c(Cn3ccnc3)c2)cc1,369 ± 154 10^−3min^−1,104,13.6±0.9 10-3min-1,19.12±2.12,56.8±4.0 10-3min-1,34.55±0.25,58.8,> 400 µM and 402 µM,6/6,22.7±1.3 10-4min-1,41.3±3.6 10-4min-1,94.8,13.6 ± 1.2 10^−3min^−1,2.38,13.68±0.78,14.99±0.40,21.84±1.39,191.1±21.9 10-3min-1,68.63±3.39,90.62±2.47,Observed first-order rate constant kobs (sarin inhibited hAChE; reactivator 100 μM): 68.4±4.0 10-4min-1; %Reactivation (sarin inhibited hAChE; reactivator 100 μM): 30.38±1.58%

# Values joined by “and” are separate entries in the source; they are usually repeats but may differ in a detail not shown here. Equal entries are not always repeated.
